Data reported in paper PMC9727064, “Performance assessment and economic analysis of a human Liver-Chip for predictive toxicology” (Communications Medicine, 2022).

Test system: human Liver-Chip (primary human hepatocytes)
Assay: Liver-Chip albumin production in top channel effluent (ELISA)
Settings: expanded drug list, lowest multiplier causing a 50% reduction in albumin production

SMILES	Albumin IC50 Donor 1	Albumin IC50 Donor 2 (donor 2)
C=C[C@@H]1C[C@]1(NC(=O)[C@@H]1C[C@@H](Oc2ncc(OC)c3ccc(Cl)cc23)CN1C(=O)[C@@H](NC(=O)OC(C)(C)C)C(C)(C)C)C(=O)NS(=O)(=O)C1CC1 [Asunaprevir]	190 unbound human Cmax multiplier	
CC(C(=O)O)c1ccc2oc(-c3ccc(Cl)cc3)nc2c1 (stereo not drawn) [Benoxaprofen]	8 unbound human Cmax multiplier	20 unbound human Cmax multiplier
